Target: Casein kinase I isoform delta (Homo sapiens, UniProt P48730)
Assay: Kinase Assay: The kinase assay was performed in V-bottom 384-well plates. […] The reaction was incubated at room temperature for 22 hours and terminated by adding 45 μl of 35 mM EDTA to each sample. The reaction mixture was analyzed on the Caliper LABCHIP®3000 (Caliper, Hopkinton, Mass.) by electrophoretic separation of the unphosphorylated substrate and phosphorylated product. […] Compounds were dissolved at 10 mM in dimethylsulfoxide (DMSO) and evaluated at eleven concentrations.

Chains of the proteins cited; added tags and fusions are not shown. Lines headed by an entry give the natural chain unless they say otherwise; changes in a name come on top.
UniProt P48730: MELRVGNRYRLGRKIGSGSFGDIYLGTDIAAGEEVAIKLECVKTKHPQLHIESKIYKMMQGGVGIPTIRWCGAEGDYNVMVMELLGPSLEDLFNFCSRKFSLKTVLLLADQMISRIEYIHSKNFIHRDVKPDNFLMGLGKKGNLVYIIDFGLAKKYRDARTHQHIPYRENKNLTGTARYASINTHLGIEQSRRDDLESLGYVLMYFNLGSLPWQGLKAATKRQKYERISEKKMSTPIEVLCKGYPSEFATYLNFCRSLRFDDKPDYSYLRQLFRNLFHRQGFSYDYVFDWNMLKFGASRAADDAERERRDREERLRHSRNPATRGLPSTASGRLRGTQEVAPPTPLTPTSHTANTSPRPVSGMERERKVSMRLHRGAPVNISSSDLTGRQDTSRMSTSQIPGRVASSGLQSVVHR

- IC50: 0.195 nM
SMILES: O=C(Nc1cn2nc(-c3c(-c4ccc(F)cc4)ncn3C3CCN(C[C@H](O)C(F)(F)F)CC3)ccc2n1)c1ccncc1

Reference: ChEMBL document CHEMBL5725596, “Substituted imidazoles as casein kinase 1 D/E inhibitors” (2017)
